Target: PLA2G4A (cytosolic phospholipase A2α, cPLA2α) (Homo sapiens, UniProt P47712)
Assay: biochemical

Chains of the proteins cited; added tags and fusions are not shown. Lines headed by an entry give the natural chain unless they say otherwise; changes in a name come on top.
UniProt P47712: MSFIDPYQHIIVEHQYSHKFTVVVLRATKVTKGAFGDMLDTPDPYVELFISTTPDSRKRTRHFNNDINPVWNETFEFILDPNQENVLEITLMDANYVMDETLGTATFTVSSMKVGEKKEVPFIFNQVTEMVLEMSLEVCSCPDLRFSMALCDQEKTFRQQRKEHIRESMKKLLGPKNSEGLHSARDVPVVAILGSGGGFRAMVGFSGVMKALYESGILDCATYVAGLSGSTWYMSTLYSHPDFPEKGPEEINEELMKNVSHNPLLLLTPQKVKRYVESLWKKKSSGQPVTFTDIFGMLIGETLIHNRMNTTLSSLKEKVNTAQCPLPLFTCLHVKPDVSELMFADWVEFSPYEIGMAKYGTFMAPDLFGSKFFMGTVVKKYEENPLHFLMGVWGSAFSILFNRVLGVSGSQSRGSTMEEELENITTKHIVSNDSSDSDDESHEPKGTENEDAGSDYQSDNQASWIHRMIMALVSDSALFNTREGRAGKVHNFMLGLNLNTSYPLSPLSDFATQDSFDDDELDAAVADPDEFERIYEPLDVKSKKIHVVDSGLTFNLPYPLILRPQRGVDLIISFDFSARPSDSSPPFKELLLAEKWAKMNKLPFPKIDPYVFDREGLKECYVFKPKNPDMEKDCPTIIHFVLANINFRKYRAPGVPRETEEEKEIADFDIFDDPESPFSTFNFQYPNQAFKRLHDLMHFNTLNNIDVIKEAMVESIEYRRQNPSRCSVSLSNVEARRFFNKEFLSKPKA

SMILES: COc1ccc2cc3[n+](cc2c1OC)CCc1cc2c(cc1-3)OCO2 [berberine]
- IC50: 15 µM

From paper PMC7919193, “Berberine Suppresses Colonic Inflammation in Dextran Sulfate Sodium–Induced Murine Colitis Through Inhibition of Cytosolic Phospholipase A2 Activity” (Frontiers in Pharmacology, 2020)
